23 molecules from PubChem BioAssay AID2676 (National Center for Advancing Translational Sciences (NCATS), 2010) can be followed below.

By UniProt entry, the sequences of proteins in these tests, tags left out.
UniProt Q9HBX9, whole entry: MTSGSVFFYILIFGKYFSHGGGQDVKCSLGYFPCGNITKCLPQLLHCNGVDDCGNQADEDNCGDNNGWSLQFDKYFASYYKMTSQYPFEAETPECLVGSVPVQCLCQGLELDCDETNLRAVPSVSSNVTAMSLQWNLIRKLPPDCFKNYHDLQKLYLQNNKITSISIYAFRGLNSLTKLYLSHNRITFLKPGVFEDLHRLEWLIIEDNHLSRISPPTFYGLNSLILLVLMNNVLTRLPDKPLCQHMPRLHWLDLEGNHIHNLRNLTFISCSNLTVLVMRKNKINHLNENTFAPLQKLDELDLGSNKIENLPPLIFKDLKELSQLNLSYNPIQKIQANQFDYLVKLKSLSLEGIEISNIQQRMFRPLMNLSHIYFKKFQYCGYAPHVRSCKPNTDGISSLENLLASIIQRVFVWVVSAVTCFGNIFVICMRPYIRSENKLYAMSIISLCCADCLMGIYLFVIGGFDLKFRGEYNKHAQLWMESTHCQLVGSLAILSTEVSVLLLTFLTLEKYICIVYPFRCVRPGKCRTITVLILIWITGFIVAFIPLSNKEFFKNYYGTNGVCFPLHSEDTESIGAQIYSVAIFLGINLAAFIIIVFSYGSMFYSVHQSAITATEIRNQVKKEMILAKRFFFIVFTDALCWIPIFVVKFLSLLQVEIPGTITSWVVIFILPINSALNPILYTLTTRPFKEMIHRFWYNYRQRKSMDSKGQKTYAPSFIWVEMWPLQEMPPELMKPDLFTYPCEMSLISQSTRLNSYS

This is a selection; strong and weak results do not stand in their true shares. Calls of active or inactive are those of the source. The call rests on the fitted dose curve; in most records, active means well fitted activation curve with a large enough effect; inconclusive means small, poorly fitted or top-dose-only effect; inactive means flat fitted curve, though single readings scatter.
On the % scale 0 is the no-effect control and ±100 the full control effect.

For this assay, the target named is Relaxin receptor 1 (Homo sapiens) (UniProt Q9HBX9). Kind of assay: qHTS Assay for Agonists of the Relaxin Receptor RXFP1. Further: nearly all actives have a fitted effect of over 60% in size. As to conditions: HEK293T-RXFP1 cAMP TR-FRET, 30 min, percent of porcine relaxin response, buffer zero; at 57.5 µM (top of the series). From the text:
NIH Chemical Genomics Center [NCGC] NIH Molecular Libraries Probe Production Centers Network [MLPCN] MLPCN Grant: R03 MH085705-01A1 Assay Submitter (PI): Alexander Agoulnik NCGC Assay Overview: The relaxin hormone is involved in the variety of biological functions in normal tissues and diseases. The role of relaxin is well-established in female reproduction and parturition, mammary gland and endometrial development, maintenance of myometrial quiescence during pregnancy. Relaxin signaling through its G protein-coupled receptor (GPCR) RXFP1 results in ECM remodeling through regulation of collagen deposition, cell invasiveness, proliferation and overall tissue homeostasis. […] Recombinant human relaxin (rhRlx) is currently being tested in clinical trials as a protective agent in congestive heart failure, in treating severe preeclampsia, and as an anti-fibrotic agent in systemic sclerosis. Upon relaxin binding RXFP1 activation leads to the activation of adenylate cyclase (AC) via Gs. cAMP will activate PKA, which phosphorylates many signaling proteins. Thus, detection of cAMP increase is an easy and reliable indication of relaxin receptor activation. To screen for agonists of the relaxin receptor, a HEK293T cell line stably transfected with RXFP1 was used. RXFP1 activation was assayed by changes in cAMP levels as detected with a time-resolved fluorescence energy transfer (TR-FRET) cAMP detection kit.
NCGC Assay Protocol Summary: This is a cell-based assay for cAMP second messenger response to screen for agonists of the RXFP1 receptor. The assay was conducted in the presence of a PDE4 inhibitor (Ro 20174). The cells were lysed and the cAMP levels were measured with a TR-FRET cAMP kit. Presence of cAMP in the cell lysate disrupts binding between the cryptate-labeled anti-cAMP and d2-labeled cAMP pair, leading to a decrease in the TR-FRET signal. Data were normalized to the controls for basal activity (buffer only) and 100% activity (29 nM porcine relaxin). The EC50 values were determined from concentration-response data modeled with the standard Hill equation 1536-well assay protocol for the HEK293 RXFP1 cAMP assay: (1) Add 3 ul HEK293 RXFP1 cell culture. 2000 cells/well in DMEM/F12, 10% FBS, 1x Pen/Strep (dispensed offline with MultiDrop Combi). (2) Incubate 16-24 hr at 37C, 5% CO2. (3) Add 1 ul 400uM Ro20174 in DPBS, 0.05% BSA, 0.005% Tween 20. (3) Add 23 nl compounds in DMSO solution. Final concentration was 0.5 - 58 uM. (4) Incubate 30 min at 37C, 5% CO2. (5) Add 1 ul cAMP-d2 in lysis buffer (HTRF cAMP HiRange kit, CisBio). (6) Add 1 ul anti-cAMP antibody-cryptate in lysis buffer (HTRF cAMP HiRange kit, CisBio). (7) Incubate 30 min at room temperature. (6) Detect the assay plate in a ViewLux plate reader (PerkinElmer) with Ex=320 nm, Em1=615 nm and Em2=665 nm. Keywords: relaxin, RXFP1, RXFP2, G-protein coupled receptor, cAMP, agonist, high throughput screening, MLSMR, MLSCN, NIH Roadmap, qHTS and NCGC
(In qHTS, concentration-response curves come from the screen itself.)
For the molecule `CP(=O)(Nc1ccccn1)Oc1ccc(Cl)cc1` (stereo not drawn), the activation is inactive: 0.426%.

`CCOP(C)(=S)SCC(=O)NC(C)C(=O)O` (stereo not drawn): the activation is inactive: 0.332%.

As for `CCOC(=O)c1ccc(NP(C)(=O)Oc2ccc(OC)cc2)cc1` (stereo not drawn), the activation was inactive: 2.34%.

In the case of `CCc1ccc(OP(C)(=O)N2CCN(c3ccc([N+](=O)[O-])cc3)CC2)cc1` (stereo not drawn), the activation was inactive: -1.95%.

For `CP(=O)(NC(=O)Nc1ccccc1)Oc1ccccc1` (stereo not drawn), the activation was inactive: 1.14%.

In the case of `Cc1cc(C)cc(OP(C)(=O)Nc2ccc(SC(F)(F)F)cc2)c1` (stereo not drawn), the activation is inactive: 0.947%.

As to `CP(=O)(Nc1ccc(SC(F)(F)F)cc1)Oc1ccc(Cl)cc1` (stereo not drawn), the activation was inactive: 2.22%.

Turning to `Cc1cccc(C)c1OP(C)(=O)Nc1ccc(SC(F)(F)F)cc1` (stereo not drawn), the activation is inactive: 0.76%.

In the case of `CP(=O)(Oc1ccccc1)OC(c1ccccc1)C(F)(F)F` (stereo not drawn), the activation is inactive: 2.07%.

Take `COc1ccccc1OP(C)(=O)Nc1ccccc1` (stereo not drawn): the activation is inactive: 0.341%.

Take `CP(=O)(Nc1ccccc1Br)Oc1ccccc1` (stereo not drawn): the activation is inactive: 1.15%.

For the molecule `CP(=S)(Nn1cnnc1)Oc1ccccc1` (stereo not drawn), the activation is inactive: 1.32%.

For `COc1ccccc1OP(C)(=O)Nc1cc(Cl)ccc1C` (stereo not drawn), the activation was inactive: 1.87%.

`COc1ccc(OP(C)(=O)Nc2cccc(F)c2)cc1` (stereo not drawn): the activation is inactive: 0.131%.

As to `Cc1cc(C)cc(OP(C)(N)=O)c1` (stereo not drawn), the activation was inactive: 1.29%.

For the molecule `CCOC(=O)c1ccc(NP(C)(=O)Oc2ccccc2)cc1` (stereo not drawn), the activation is inactive: -1.19%.

Take `COc1ccccc1OP(C)(=O)Nc1ccc(C)cc1` (stereo not drawn): the activation is inactive: -0.517%.

As to `Cc1ccc(NP(C)(=O)Oc2ccccc2)c(C)c1` (stereo not drawn), the activation is inactive: 2.99%.

As for `CC(C)(C)c1ccc(OP(C)(=O)Nc2ccc(SC(F)(F)F)cc2)cc1` (stereo not drawn), the activation was inactive: -0.396%.

On to `Cc1cccc(C)c1OP(C)(N)=O` (stereo not drawn), for which the activation is inactive: 0.162%.

For `O=[N+]([O-])c1ccc2c(c1)C=Nc1ccccc1O2`, the activation is inactive: 1.11%.

For the molecule `O=[N+]([O-])c1cc([N+](=O)[O-])c(Nc2cccnc2)c([N+](=O)[O-])c1`, the activation was inactive: -2.32%.

As for `CCN(CC)CCCOC(=O)C(O)(c1ccccc1)c1ccccc1`, the activation is inactive: 0.0932%.
